Experimental data: patent US11407781B2, “Equatorially modified polymer linked multimers of guanosine-3′, 5′-cyclic monophosphates” (GRAYBUG VISION, INC., priority 2016, dated 2022)

Assay: Determination of lipophilicity by RP-18 HPLC retention (log k′g)
Type: physicochemical
Source text: Lipophilicity information is thus often only obtained by fragment analysis and corresponding calculations.
An established HPLC method, which is based on retention data on RP-18 reversed phase silica during gradient elution, was used for the determination of lipohilicity.
Instead of log P the method yields the descriptor log k′g, ranking analytes according to their lipophilicity on a logarithmic scale as well. Since charged molecules such as cyclic nucleotides have only hardly any retention on reversed phases, ion pair chromatography with the lipophilic triethylammonium cation is used.

Substance: 8-(2-Aminophenylthio)-β-phenyl-1,N^2-ethenoguanosine-3′,5′-cyclic monophosphorothioate, Rp-isomer [Compound 36]
- log k′g: 3.150
